Compound activity: PubChem, several laboratories
DSG3 Ab inh: human desmoglein-3 autoantibody binding inhibition; P32926; DSG3-coupled beads, scFv-anti-DSG3-GFP binding, flow cytometry; active compounds read low; binding (percent of control), % at 10 µM; 0.48% of 310,000 active;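 active means binding more than 3 SD below its plate's average and above zero; inconclusive means below that plate limit but binding exactly zero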;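 further: hits lower antibody fragment binding to DSG3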
UUG fidelity: modulators of yeast start codon fidelity, primary screen, whole organism, S. cerevisiae, single point, plate reader | AID 602363, 2012 | S. cerevisiae UUG-firefly luciferase reporter, luminescence/redox ratio | activity score, % at 18.7 µM | hit rate 0.13% among 350,000;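 active = replicate mean at a twofold rise or more, about +100% in these data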;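 also: firefly luciferase made from a UUG start codon reports start codon fidelity; reporter light over untreated wells divided by growth signal over untreated wells; some hits fall short of that in this replicate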
PABP1 MLLE inh: blocks PAM2 peptide binding to the PABP1 MLLE domain; inhibition, % at 20 µM; AID 588489; P11940; GST-MLLE / FITC-PAM2 fluorescence polarization; 0.36% of 360,000 active; in the data active means inhibition above about 35%, passing the limit was not always enough
eIF4H inh: inhibitors of RNA binding by human eIF4H; Q15056; eIF4H fluorescence polarization binding assay; inhibition, % at 35 µM; 0.94% of 290,000 active;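 further: calls also rest on retests at 20 µM and on dose response follow-up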
PABP polyA inh: blocks human PABP binding to poly(A) RNA; P11940; fluorescence polarization; calls only at 35 µM; 1% of 290,000 active; AID 2014;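 further: calls also rest on retests at 20 µM and on dose response follow-up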
Of the large screens only hits and unclear results are named; the others gave an inactive call. Compounds with a hit are over-represented: about 1.5% of the library has one in this group of screens. Unless noted, how the calls were made is not given here.

Cn1c(=O)oc2cc(S(=O)(=O)Nc3ccc4c(c3)OCCO4)ccc21	eIF4H inh 75, PABP polyA inh active
CCOC(=O)c1ccc(NS(=O)(=O)c2ccc3c(c2)oc(=O)n3C)cc1	none
CCOC(=O)Cn1c(=O)oc2cc(S(=O)(=O)NC(C)c3ccccc3)ccc21 (configuration not stated)	none
COC(=O)c1ccc(NS(=O)(=O)c2ccc3c(c2)oc(=O)n3C)cc1	DSG3 Ab inh 92
CCC1CCCCN1CCNS(=O)(=O)c1ccc2c(c1)oc(=O)n2C (configuration not stated)	none
Cn1c(=O)c(=O)n(C)c2cc(S(=O)(=O)Nc3ccc4c(c3)OCCO4)ccc21	none
CCOC(=O)c1ccc(NS(=O)(=O)c2ccc3c(c2)n(C)c(=O)n3C)cc1	DSG3 Ab inh inconclusive
COC(=O)c1ccc(NS(=O)(=O)c2ccc3c(c2)n(C)c(=O)n3C)cc1	DSG3 Ab inh 76
CCn1c(C)nc2cc(C(=O)NNC(=S)NC(=O)c3ccccc3)ccc21	PABP polyA inh active (no result: UUG fidelity)
CCCCCCc1nc(C(N)=O)c2[nH]c(=O)n(-c3ccccc3F)c2n1	DSG3 Ab inh 62
CC1(C)Cc2cccc(OCC(=O)Nc3ccccc3C(F)(F)F)c2O1	DSG3 Ab inh 77
CC(C)c1nnc(NC(=O)c2cccc(-n3cnnn3)c2)s1	none
N#Cc1ccsc1NC(=O)c1cccc(-n2cnnn2)c1	PABP polyA inh active
O=C(NCC[C@@H]1CC[C@H](NC(=O)c2ccccc2F)[C@H](CO)O1)c1cnccn1	none (no result: DSG3 Ab inh, PABP1 MLLE inh, eIF4H inh, PABP polyA inh)
CNC[C@H]1Oc2ccc(NS(=O)(=O)c3ccc(F)cc3)cc2CC(=O)N([C@H](C)CO)C[C@@H]1C	none (no result: DSG3 Ab inh, PABP1 MLLE inh, eIF4H inh, PABP polyA inh)
COc1ccc(NC(=O)NNC(=O)CCc2ccc(O)c(O)c2)cc1OC	eIF4H inh 57 (no result: DSG3 Ab inh)
C[C@H]1CN([C@@H](C)CO)C(=O)c2cc(NC(=O)Cc3ccccc3)ccc2O[C@@H]1CN(C)Cc1ccccc1	none (no result: DSG3 Ab inh, PABP1 MLLE inh, eIF4H inh, PABP polyA inh)
CC(=O)N(C)C[C@H]1Oc2cc(C#CC(C)(C)O)ccc2S(=O)(=O)N([C@@H](C)CO)C[C@@H]1C	none (no result: DSG3 Ab inh, PABP1 MLLE inh, eIF4H inh, PABP polyA inh)
O=C(C[C@@H]1C[C@@H]2c3cc(NC(=O)C4CCOCC4)ccc3O[C@@H]2[C@H](CO)O1)NCc1cccc(F)c1	none (no result: DSG3 Ab inh, PABP1 MLLE inh, eIF4H inh, PABP polyA inh)
COc1ccc(-c2noc(CCC(=O)NC3CCCCCC3)n2)cc1OC	DSG3 Ab inh 83 (no result: eIF4H inh, PABP polyA inh)
COc1cc(-c2noc(CCC(=O)NC3CCCC3)n2)cc(OC)c1OC	none (no result: DSG3 Ab inh)
O=C(CN1C(=O)NC2(CCCC2)C1=O)Nc1cccc(Cl)c1Cl	DSG3 Ab inh 57 (no result: UUG fidelity)
N#Cc1ccsc1NC(=O)CN1C(=O)NC2(CCCCC2)C1=O	PABP polyA inh active
NC(=O)c1ccsc1NC(=O)CN1C(=O)NC2(CCCC2)C1=O	none (no result: eIF4H inh, PABP polyA inh)
COc1ccc(S(=O)(=O)N(C)C[C@H]2Oc3ccc(NS(=O)(=O)c4cn(C)cn4)cc3CC(=O)N([C@@H](C)CO)C[C@@H]2C)cc1	none (no result: DSG3 Ab inh, PABP1 MLLE inh, eIF4H inh, PABP polyA inh)
O=[N+]([O-])c1ccc(/C=[N+](\[O-])[C@@H]2CCCC[C@@H]2/[N+]([O-])=C/c2ccc([N+](=O)[O-])o2)o1	eIF4H inh 81, PABP polyA inh active
O=C(N/N=C/c1ccc([N+](=O)[O-])o1)C1CCCC1	none
Cc1ccc(/C=C/C(=O)OCC(=O)N(CC(C)C)c2c(N)n(Cc3ccccc3)c(=O)[nH]c2=O)o1	DSG3 Ab inh 92 (no result: eIF4H inh, PABP polyA inh)
CCn1c(SCC(=O)Nc2nc3ccccc3s2)nnc1-c1ccc(Br)cc1	DSG3 Ab inh -18
O=C(COc1ccccc1)Nc1nnc(-c2ccco2)o1	PABP polyA inh active
Cc1cccn2c(=O)c3cc(C(N)=S)c(=N)n(CCCN4CCOCC4)c3nc12	eIF4H inh 75, PABP polyA inh active (no result: UUG fidelity)
CCc1nnc(NC(=O)CSc2nc3[nH]ncc3c(=O)[nH]2)s1	none
O=C(CSc1nc2[nH]ncc2c(=O)[nH]1)Nc1nccs1	eIF4H inh active, PABP polyA inh active (no result: DSG3 Ab inh, UUG fidelity, PABP1 MLLE inh)
Cc1ccccc1-c1cc2nc(-c3ccc([N+](=O)[O-])cc3)cc(=O)n2[nH]1	none (no result: UUG fidelity)
O=c1cc(-c2ccc([N+](=O)[O-])cc2)nc2cc(-c3ccc(F)cc3)[nH]n12	PABP polyA inh active (no result: UUG fidelity)
CNC[C@@H]1Oc2c(NC(=O)c3nc4ccccc4s3)cccc2C(=O)N([C@H](C)CO)C[C@@H]1C	none (no result: DSG3 Ab inh, PABP1 MLLE inh, eIF4H inh, PABP polyA inh)
CO[C@H]1CN(C)C(=O)c2cc(NC(C)=O)ccc2OC[C@@H](C)N(CCc2ccccc2)C[C@@H]1C	none (no result: DSG3 Ab inh, PABP1 MLLE inh, eIF4H inh, PABP polyA inh)
CCc1ccccc1OCC(=O)N(CC)CC(=O)NCc1ccc(F)cc1	eIF4H inh active, PABP polyA inh active (no result: UUG fidelity)
C[C@H](CO)N1C[C@H](C)[C@H](CN(C)C(=O)Nc2ccc(C(F)(F)F)cc2)Oc2ccc(NS(=O)(=O)c3ccc(F)cc3)cc2C1=O	none (no result: DSG3 Ab inh, PABP1 MLLE inh, eIF4H inh, PABP polyA inh)
COc1cccc(CN2CCNC(=O)C2CC(=O)NCc2cn3ccccc3n2)c1OC (configuration not stated)	eIF4H inh 86, PABP polyA inh active (no result: UUG fidelity)
Cc1nc(CCNC(=O)CC2C(=O)NCCN2Cc2ccccc2)sc1C (configuration not stated)	PABP1 MLLE inh 38
Cc1cnc(CNC(=O)CC2C(=O)NCCN2Cc2cccc(F)c2F)cn1 (configuration not stated)	eIF4H inh 81, PABP polyA inh active
COCC(=O)Nc1ccc2c(c1)C(=O)N(C)C[C@H](OC)[C@@H](C)CN(CC1CC1)[C@H](C)CO2	none (no result: DSG3 Ab inh, PABP1 MLLE inh, eIF4H inh, PABP polyA inh)
CO[C@@H]1CN(C)C(=O)c2cc(NS(C)(=O)=O)ccc2OC[C@@H](C)N(CCC(F)(F)F)C[C@@H]1C	none (no result: DSG3 Ab inh, PABP1 MLLE inh, eIF4H inh, PABP polyA inh)
CC(C)C#Cc1cnc2c(c1)C(=O)N([C@@H](C)CO)C[C@@H](C)[C@@H](CN(C)C(=O)Nc1ccc(F)cc1)O2	none (no result: DSG3 Ab inh, PABP1 MLLE inh, eIF4H inh, PABP polyA inh)
CC(C)=CC(=O)N1CCC(Oc2cccc(C(=O)NCc3ccccn3)c2)CC1	none (no result: eIF4H inh, PABP polyA inh)
CSCC(C)N1CCC(Oc2cccc(C(=O)NCc3ccccn3)c2)CC1 (configuration not stated)	PABP1 MLLE inh 43
CCOc1ccc(C2C(C#N)=C(N)N(c3sc4c(c3C#N)CCCC4)C3=C2C(=O)CCC3)cc1 (configuration not stated)	eIF4H inh inconclusive, PABP polyA inh active (no result: UUG fidelity)
O=S(=O)(N[C@H]1CC[C@@H](CCn2cc(-c3cccnc3)nn2)O[C@H]1CO)c1ccc(F)cc1	none (no result: DSG3 Ab inh, PABP1 MLLE inh, eIF4H inh, PABP polyA inh)
O=C(c1ccncc1)N1C[C@@H]2[C@H](c3ccccc31)[C@@H](CO)N2C(=O)c1ccccn1	none (no result: DSG3 Ab inh, PABP1 MLLE inh, eIF4H inh, PABP polyA inh)
CN(C)Cc1cc(O)c(CN(C)C)cc1O	DSG3 Ab inh 92, PABP1 MLLE inh 79 (no result: UUG fidelity)
COc1ccc(N2Cc3cccc(C(=O)O)c3C2=O)cc1	eIF4H inh 93, PABP polyA inh active
Cn1c(=NC(=O)c2ccccc2[N+](=O)[O-])sc2cc(S(C)(=O)=O)ccc21	DSG3 Ab inh 86
Cn1c(=NC(=O)c2ccc(S(=O)(=O)N3CCCc4ccccc43)cc2)sc2cc(S(C)(=O)=O)ccc21	none
O=CNc1ccc2c3c(cccc13)-c1ccccc1-2	PABP1 MLLE inh 47 (no result: eIF4H inh, PABP polyA inh)
CC(=O)Nc1ccc2c3c(cccc13)C(=O)N(c1ccccc1)C2=O	none (no result: UUG fidelity)
Cc1ccc(-c2csc3nc(CN(C)Cc4ccccc4)[nH]c(=O)c23)cc1	eIF4H inh 98, PABP polyA inh active
